Measurements reported in patent US10618902B2, “Substituted pyrido[2,3-d]pyrimidines as inhibitors of protein kinases” (Celgene CAR LLC, priority 2013, dated 2020).

Sequences of proteins named here, by UniProt entry; tags and fusion partners are left off. Residues count along the entry.
UniProt P22455, 22-802 limits assumed: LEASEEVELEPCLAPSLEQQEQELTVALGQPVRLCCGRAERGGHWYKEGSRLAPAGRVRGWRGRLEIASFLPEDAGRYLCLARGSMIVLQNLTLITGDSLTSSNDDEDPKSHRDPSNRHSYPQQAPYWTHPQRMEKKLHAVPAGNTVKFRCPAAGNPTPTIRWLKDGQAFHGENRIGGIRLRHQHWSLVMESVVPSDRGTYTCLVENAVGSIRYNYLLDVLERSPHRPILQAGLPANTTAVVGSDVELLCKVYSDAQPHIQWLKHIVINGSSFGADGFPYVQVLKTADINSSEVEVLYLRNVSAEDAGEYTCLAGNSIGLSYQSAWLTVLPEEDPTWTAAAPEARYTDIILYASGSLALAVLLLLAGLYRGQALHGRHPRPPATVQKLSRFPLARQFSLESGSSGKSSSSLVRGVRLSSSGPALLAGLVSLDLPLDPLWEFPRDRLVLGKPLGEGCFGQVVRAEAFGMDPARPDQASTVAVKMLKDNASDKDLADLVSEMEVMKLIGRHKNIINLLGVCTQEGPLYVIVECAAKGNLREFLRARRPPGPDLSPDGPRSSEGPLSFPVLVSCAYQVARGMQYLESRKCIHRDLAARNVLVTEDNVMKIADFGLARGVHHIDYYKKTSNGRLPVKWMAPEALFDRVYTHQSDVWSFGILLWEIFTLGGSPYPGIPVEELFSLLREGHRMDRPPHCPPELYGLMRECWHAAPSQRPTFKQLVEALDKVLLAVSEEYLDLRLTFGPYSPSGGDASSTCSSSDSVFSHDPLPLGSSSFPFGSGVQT

Legend:
FGFR4-WT = FGFR4-WT (Homo sapiens (Human), UniProt P22455); assay: Omnia assay for potency against FGFR4 enzyme; format: biochemical; conditions: read-out: FGFR4 IC50; method a: FGFR4-WT (Invitrogen) 10 nM, ATP 300 uM, Y10-Sox 10 uM
pFGFR4 (Huh7 cells) = pFGFR4 (Huh7 cells) (Homo sapiens (Human), UniProt P22455); assay: FGFR4 signaling (pFGFR4) in Huh7 cells (MSD); format: cell-based; conditions: read-out: Signaling EC50 (nM) pFGFR4 (Huh)
Huh7 cells = assay: Cell proliferation, Huh7 (CellTiter Glo); conditions: read-out: Cell Proliferation GI50 (nM) HUH, 120 hr
MDA-MB-453 cells = assay: Cell proliferation, MDA-MB-453 (CellTiter Glo); conditions: read-out: Cell Proliferation GI50 (nM) MDA, 96 hr

IC50 (FGFR4-WT) | EC50 (pFGFR4 (Huh7 cells)) | GI50 (Huh7 cells) | GI50 (MDA-MB-453 cells) | SMILES
< 100 nM | < 100 nM | 501 to 999 nM |  | C=CC(=O)N[C@H]1CN(C(C)=O)C[C@H]1Nc1ncc2cc(-c3c(Cl)c(OC)cc(OC)c3Cl)c(=O)n(C)c2n1 (relative stereo)
< 100 nM | < 100 nM |  |  | C=CC(=O)Nc1cc(C(F)(F)F)ccc1Nc1ncc2cc(-c3c(Cl)c(OC)cc(OC)c3Cl)c(=O)n(C)c2n1
< 100 nM | < 100 nM |  |  | C=CC(=O)NC1CSCC1Nc1ncc2cc(-c3c(Cl)c(OC)cc(OC)c3Cl)c(=O)n(C)c2n1 (stereo not shown)
< 100 nM | < 100 nM |  |  | C=CC(=O)Nc1ccc(F)cc1Nc1ncc2cc(-c3c(Cl)c(OC)cc(OC)c3Cl)c(=O)n(C)c2n1
< 100 nM | < 100 nM | < 100 nM | < 100 nM | C=CC(=O)N[C@H]1CN(c2ccn(C)n2)C[C@H]1Nc1ncc2cc(-c3c(Cl)c(OC)cc(OC)c3Cl)c(=O)n(C)c2n1
< 100 nM | < 100 nM | > 1000 nM | 101 to 500 nM | C=CC(=O)Nc1nc(OC)ccc1Nc1ncc2cc(-c3c(Cl)c(OC)cc(OC)c3Cl)c(=O)n(C)c2n1
< 100 nM | < 100 nM |  |  | C=CC(=O)Nc1ccc(C)cc1Nc1ncc2cc(-c3c(Cl)c(OC)cc(OC)c3Cl)c(=O)n(C)c2n1
< 100 nM | < 100 nM | 101 to 500 nM | < 100 nM | C=CC(=O)Nc1cnccc1Nc1ncc2cc(-c3c(Cl)c(OC)cc(OC)c3Cl)c(=O)n(C)c2n1
< 100 nM | < 100 nM | 101 to 500 nM | < 100 nM | C=CC(=O)Nc1cc(C2CC2)ccc1Nc1ncc2cc(-c3c(Cl)c(OC)cc(OC)c3Cl)c(=O)n(C)c2n1
< 100 nM | < 100 nM |  |  | C=CC(=O)N[C@H]1COC[C@H]1Nc1ncc2cc(-c3c(Cl)c(OC)cc(OC(F)F)c3Cl)c(=O)n(C)c2n1
< 100 nM | < 100 nM |  |  | C=CC(=O)Nc1c(F)cccc1Nc1ncc2cc(-c3c(Cl)c(OC)cc(OC)c3Cl)c(=O)n(C)c2n1
< 100 nM | < 100 nM | 101 to 500 nM | < 100 nM | C=CC(=O)Nc1cc(-c2nnn(C)n2)ccc1Nc1ncc2cc(-c3c(Cl)c(OC)cc(OC)c3Cl)c(=O)n(C)c2n1
< 100 nM | < 100 nM | 101 to 500 nM |  | C=CC(=O)N[C@H]1COC[C@H]1Nc1ncc2cc(-c3c(Cl)c(OC)cc(OC)c3Cl)c(=O)n(CC(O)CO)c2n1 (relative stereo)
< 100 nM | < 100 nM |  |  | C#CC(=O)N[C@H]1COC[C@H]1Nc1ncc2cc(-c3c(Cl)c(OC)cc(OC)c3Cl)c(=O)n(C)c2n1 [Compound I-251]
< 100 nM | < 100 nM | 101 to 500 nM |  | C=CC(=O)N[C@H]1COC[C@H]1Nc1ncc2cc(-c3c(Cl)c(OC)cc(OC)c3Cl)c(=O)n(CC(O)CO)c2n1 (single isomer, unassigned)
